In patent US20260021064A1, “ACETAMINOPHEN AND NAPROXEN FOR TREATING PAIN” (Kenvue Brands LLC, priority 2022, published 2026):

System: pain after surgical extraction of four third molars
Details: 7 Hours post-dose; PR-NRS 0-10
Protocol: 1. Time-Weighted Sum of Total Pain Relief Score From Baseline (0 Hour) to 6 Hours (TOTPAR 0-6) [Time Frame: Baseline (0 hour) up to 6 hours post-dose]. Time-weighted total pain relief (TOTPAR) was measured using a Pain Relief Numerical Rating Scale (PR-NRS) ranging from 0-10 (0=no relief, 10=complete relief). Total pain relief scores (TOTPARs) were calculated by multiplying the pain relief score at each postdose time point by the duration (in hours) since the preceding time point and then summing these values. The minimum value was 0, and the maximum value was 60. Higher scores was indicative of more pain relief.
2. […] TOTPAR was measured using a PR-NRS ranging from 0-10 (0=no relief, 10=complete relief). Total pain relief scores (TOTPARs) were calculated by multiplying the pain relief score at each postdose time point by the duration (in hours) since the preceding time point and then summing these values. […]
3. […] TOTPAR was measured using a PR-NRS ranging from 0-10 (0=no relief, 10=complete relief). Total pain relief scores (TOTPARs) were calculated by multiplying the pain relief score at each postdose time point by the duration (in hours) since the preceding time point and then summing these values. […]
Time-Weighted Sum of Total Pain Relief Score From baseline (0 Hour) to 8 Hours (TOTPAR 0-8): TOTPAR was measured using a PR-NRS ranging from 0-10 (0=no relief, 10=complete relief). […]

COc1ccc2cc([C@H](C)C(=O)O)ccc2c1 [Arm 2: Naproxen Sodium 440 mg, naproxen sodium]
PAR Score, Least Squares Mean (Standard Error): 6.05 (0.39)
